The target in test [1] is T1, κ receptor (Mus musculus, UniProt P33534). The experiment in a line: Saturation binding of [3H]CI977 to whole brain membrane proteins (Scatchard).
Test [2] concerns κ receptor. The test is described as above. The settings on record: kappa receptor gene line, homozygous −/−.
For test [3], the target named is T1, κ receptor. The experiment in a line: Autoradiography of brain sections labelled with [3H]CI977. To be noted: heterozygous kappa mice.

Amino acid sequences for entries named in this document (tags omitted).
UniProt P33534, whole entry: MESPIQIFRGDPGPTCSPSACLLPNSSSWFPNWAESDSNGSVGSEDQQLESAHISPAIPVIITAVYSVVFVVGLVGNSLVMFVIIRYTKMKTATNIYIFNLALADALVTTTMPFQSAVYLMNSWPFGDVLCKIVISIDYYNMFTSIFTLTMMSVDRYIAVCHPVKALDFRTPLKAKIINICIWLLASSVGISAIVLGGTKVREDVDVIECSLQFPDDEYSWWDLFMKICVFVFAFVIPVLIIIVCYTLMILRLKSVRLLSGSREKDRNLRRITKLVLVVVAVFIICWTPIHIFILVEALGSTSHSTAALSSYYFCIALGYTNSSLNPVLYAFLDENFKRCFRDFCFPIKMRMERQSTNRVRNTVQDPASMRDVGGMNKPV

pKd: −log10 of the molar value. Where two headings read alike, the source gives them in different places. This is a selection: effects in other tests are not listed, and their absence says nothing.

As usually defined, the pKd is the Kd on a negative log10 scale, so that one unit is a factor of ten.

In the case of “(−)-5b,7b,8a)-3,4-dichloro-N-methyl-N-[7-(1-pyrrolidinyl)-1-oxaspiro[4,5]-dec-8-yl]benzo[b]furan-4-acetamide”, the pKd in test [1] ([3H]CI977, μ receptor gene line, heterozygous +/−) was 9.70; in test [1] ([3H]CI977, μ receptor gene line, homozygous −/−) it was 9.68; in test [1] ([3H]CI977, μ receptor gene line, wild +/+), 9.67; in test [1] (read-out: CI977 Kd, kappa receptor gene line, heterozygous +/−), 9.76; in test [1] (read-out: CI977 Kd, kappa receptor gene line, wild +/+) it was 9.86. Also, the “binding curves (Scatchard) compared between genotypes” value in test [1] (brains of +/+, +/− and −/− MOR mice) was “superimposable”. The “CI977 Bmax” value in test [1] (kappa receptor gene line, heterozygous +/−) was 0.020 pmole/mg proteins; in test [1] (kappa receptor gene line, wild +/+), 0.040 pmole/mg proteins. In test [1] (whole brain homogenates, heterozygous kappa animals), the “reduction of the binding sites of the kappa receptor” value came out at 50%. Moreover, the “CI977 Kd” value in test [2] is “undetect-”. In test [3], the “reduction of binding sites of the kappa receptor in brain sections” value is 50%.

The values are drawn from patent publication US6632977B2 (priority 1996, dated 2003).
